Measured values taken from PMC10059799 (Viruses, 2023).

Biological target: T1, HKU15 M^pro (Porcine deltacoronavirus, UniProt A0A0E3N825)
T1 construct: gene ORF1ab
Settings: covalent; catalytic cysteine, active site, full occupancy in both protomers; cocrystallized at pH […]; twinned crystal

COc1cccc2[nH]c(C(=O)N[C@@H](CC(C)C)C(=O)N[C@@H](C[C@@H]3CCNC3=O)C(=O)CO)cc12 [PF-00835231]
X-ray cocrystal structure: PF-00835231 bound at the active site of HKU15 M^pro, with the same binding mode
